Data set [1] is described as follows: Phase 2a trial: MRI liver volume (Table 14). As to conditions: abdominal MRI, FAS population, difference is placebo minus dose group.
Data set [2] in a line: Phase 2a trial: InBody body weight (Tables 10, 11). The following applies: for InBody body weight change at Day 61, Difference of LS Mean and Placebo (SEM) / InBody body weight mean change from baseline at Day 61, LS Mean (SEM): FAS population.
Data set [3] can be described thus: Single-dose tolerability and repeat-dose toxicity, rats. The following applies: up to 63-days.
A short description of data set [4]: SAD study: indirect calorimetry, resting metabolic rate (RMR). As to conditions: single doses as high as 1400 mg, first 33 hours of IC assessments.
A short description of data set [5]: Preliminary investigations into drug-drug interaction potential.
A short description of data set [6]: Phase 2a trial: abdominal MRI visceral adipose tissue (Table 12). The following applies: FAS population, difference is placebo minus dose group.
Data set [7] can be described thus: Phase 2a trial: abdominal MRI subcutaneous adipose tissue (Table 13). The following applies: FAS population, difference is placebo minus dose group.

Where only a bound is given, the exact number is not on record here.

For `Cn1c(COc2ccc([N+](=O)[O-])cc2[N+](=O)[O-])cnc1[N+](=O)[O-]`, the “Mean Diff. (Uncorrected Fisher's LSD), liver volume, percent change from baseline” value worked out at 3.669% in data set [1] (Placebo vs. 150 mg once daily), 6.949% in data set [1] (Placebo vs. 300 mg once daily) and 6.173% in data set [1] (Placebo vs. 450 mg once daily). For the same compound, the “InBody body weight change at Day 61, Difference of LS Mean and Placebo (SEM)” value was −0.93 (1.467) in data set [2] (CM1 150 mg (N = 20)), −3.71 (1.435) in data set [2] (CM1 300 mg (N = 21)) and −5.83 (1.471) in data set [2] (CM1 450 mg (N = 18)). Further, the “InBody body weight mean change from baseline at Day 61, LS Mean (SEM)” value in data set [2] (CM1 150 mg (N = 20)) is listed as −1.14 (1.028); in data set [2] (CM1 300 mg (N = 21)), −3.92 (0.981); in data set [2] (CM1 450 mg (N = 18)) it was −6.04 (1.034). In addition, the “Body weight observed, Day 61, difference Placebo vs. dose” value in data set [2] (Placebo vs. 150 mg) came out at 1.131; in data set [2] (Placebo vs. 300 mg), 3.904; in data set [2] (Placebo vs. 450 mg) it was 6.014. Moreover, in data set [3], the well tolerated dose is given as no more than 120 mg/kg/day. The “maximum increase in RMR” value in data set [4] was “approximately 20%”. Moreover, the drug-drug interaction potential entry in data set [5] is on record as “have not revealed the potential for drug-drug interactions”. Moreover, the “Mean Diff. (Uncorrected Fisher's LSD), visceral adipose tissue, percent change from baseline” value in data set [6] (Placebo vs. 150 mg once daily) was −0.1480%; in data set [6] (Placebo vs. 300 mg once daily) it was 4.442%; in data set [6] (Placebo vs. 450 mg once daily), 5.513%. Also, the “Mean Diff. (Uncorrected Fisher's LSD), subcutaneous adipose tissue, percent change from baseline” value in data set [7] (Placebo vs. 150 mg once daily) was found to be 1.237%; in data set [7] (Placebo vs. 300 mg once daily) it was 3.327%; in data set [7] (Placebo vs. 450 mg once daily), 3.811%.

Source of the values: patent US20250177353A1 (priority 2021, published 2025).
